The values below come from patent US20260382588A1, “COMPOUNDS CONTAINING A HYDROXYPHENYL MOIETY AND THEIR USE” (published 2026).

The test relates to U87-luc orthotopic GB tumors. As to the kind of experiment: Orthotopic U87-luc GB mouse model: tumor growth, survival and relapse. The text has this: Tumor cell orthotopic implantation—Tumor cells (U87-Luc (A. Jabouille, et al., Oncotarget, 2015, 6, 24922-24934)) were implanted into the brain of immunodeficient NMRI-Foxnlnu/Foxn1nu, 8 weeks old male mice (Janvier Laboratories, Laval, France). All animal procedures met the European Community Directive guidelines (Agreement B35-238-40 Biosit Rennes, France/No DIR 13480) and were approved by the local (University of Rennes) ethics committee and ensuring the breeding and the daily monitoring of the animals in the best conditions of wellbeing according to the law and the rule of 3R (Reduce-Refine-Replace). U87-Luc cells were implanted in the mouse brain by intracerebral injection followed by tumor growth monitoring using bioluminescence (PhotonIMAGER™ systems, BIOSPACE LAB). The mice were anesthetized intraperitoneally (i.p. mix Xylazine 10 mg/kg and Ketamin 60 mg/kg) and then fixed on a stereotactic frame. This framework makes it possible to manipulate the brains of living animals, and to reach isolated areas of the brain precisely relative to markings visible to the naked eye through the use of three-dimensional coordinates. After incising the scalp, the stereotaxic coordinates were calculated for injection of tumor cells into a specific point of the brain, and reproducible for all the mice used. In the study, the tumor cells (5×10^4 cells per mice in 1 μL) were injected at Bregma 0, 2.2 mm to the left of the bregma and 3.2 mm deep to perform the implantation at the level of the striatum.
Mouse treatments—Four days after tumor cells implantation, compound 28 (Z4P) treatments were started consisting in treatments of 300 μg/kg/day intraperitonially. For the RNA quantification experiment, performed on tumors generated in mice, three mice per group were treated according to the methods above. Mice were sacrificed at day 34 and the brains were removed and extract the tumor. The samples were used to extract RNA for the analysis, as described below.
For the survival experiment, performed on tumors generated in mice, co-treatment with TMZ was performed one week after the beginning of compound 33 (Z4) treatment (n=7 per group for the TMZ and COMBO, n=8 per group for the control and compound 28 (Z4P)). The animals were injected with 10 mg/kg/day of TMZ delivered intraperitoneally for ten days. All the treatments were performed with 2 days of rest each week. Survival was measured as the time between implantation and sacrifice, which was performed by cervical dislocation in case of critical clinical signs or loss of weight >10%.
Bioluminescence monitoring—Mice were evaluated with in vivo bioluminescence imaging every 3 days starting from the day 4, for the first week, and weekly onward for tumor progression and followed for signs of neurologic deterioration daily. […]

For `Cc1ccc(C)c(NC(=O)NC(C)CCc2ccc(O)cc2)c1` (racemic), the “tumor growth or mouse survival” value (compound alone, i.p. 300 μg/kg daily (FIGS. 4B and 4C)) is “no effect on tumor growth or mouse survival”. Besides, the “tumor relapse, co-treatment with TMZ” value (compound i.p. plus TMZ, over 200 days (FIG. 5D)) was “no tumor relapse was observed”. In addition, for the setting “i.p. 300 μg/kg daily from D4 plus TMZ 10 mg/kg, 10 daily treatments (FIG. 5D)”, the “tumor growth, co-treatment with TMZ” value is reported as “significantly decreased tumor growth”.
